Test results taken from PMC6375636, “Monotherapy with a low-dose lipopeptide HIV fusion inhibitor maintains long-term viral suppression in rhesus macaques” (PLoS Pathogens, 2019).

Key:
[1] = in vivo
Method: (§1) A single-cycle infection assay was performed to determine the inhibitory activity of the monkey sera on HIV-1NL4-3 pseudovirus. The 50% effective concentration was defined as the fold serum dilution that inhibited 50% of virus infection.

[2] = test system: HIV-1NL4-3 pseudovirus; experiment: Ex vivo inhibitory activity of sera from monkeys administrated LP-80 (single-cycle infection assay); type: in vivo, Chinese rhesus macaques
Method: as §1

[3] = rats, 6 mg/kg, 72 h after injection
[4] = in vivo; conditions: Sprague-Dawley, rat, 6 mg/kg
[5] = test system: HIV-1 pseudovirus, primary Env BJOX002000.03.2; type: cell-based; conditions: Env BJOX002000.03.2, subtype B/C; mean ± SD of 3 assays in triplicate
Method: The inhibitory activities of inhibitors against HIV-1 pseudoviruses and replication-competent isolates were measured as described previously. Briefly, HIV-1 pseudoviruses were generated via the cotransfection of HEK293T cells with an Env-expressing plasmid and a backbone plasmid that encodes Env-defective, luciferase-expressing HIV-1 genome (pSG3Δenv). Viral stocks of replication-competent HIV-1 isolates were generated by transfecting viral molecular clones into HEK293T cells. Culture supernatants were harvested at 48 h posttransfection, and 50% tissue culture infectious doses (TCID50) in TZM-bl cells were determined. Inhibitors were prepared in 3-fold dilutions, mixed with 100 TCID50 of a virus, and then incubated for 1 h at room temperature. The mixture was added to TZM-bl cells (10^4/well), and the cells were incubated for additional 48 h at 37°C. Luciferase activity was measured as described above.

Row | Compound | level at 72 h ([1]; rhesus monkey, in vivo, sc, 3 mg/kg) | Serum concentration, fold higher than the IC50 value 7.09 pM ([1]; rhesus monkeys, SC 3 mg/kg, 72 h) | Serum concentration, fold higher than the measured IC50 value ([1]; rhesus monkeys, SC 3 mg/kg, 168 h) | Mean fold serum dilution that inhibited 50% of virus infection ([2]; monkey sera 96 h after SC 3 mg/kg) | Mean fold serum dilution that inhibited 50% of virus infection ([2]; monkey sera 120 h after SC 3 mg/kg) | Mean fold serum dilution that inhibited 50% of virus infection ([2]; monkey sera 168 h after SC 3 mg/kg) | Serum concentration, fold higher than the mean IC50 value (7.09 pM) [3] | half-life ([4]; iv) | half-life ([4]; sc) | IC50 [5]
1 | CCCCCCCCCCCCCCCCCC(=O)NCCCC[C@H](NC(=O)[C@H](CCC(=O)O)NC(=O)[C@H](CC(C)C)NC(=O)[C@H](CCCCN)NC(=O)[C@H](CCCCN)NC(=O)[C@H](CC(C)C)NC(=O)[C@H](CCC(=O)O)NC(=O)[C@H](CCC(=O)O)NC(=O)[C@H](CCC(=O)O)NC(=O)[C@H](CC(N)=O)NC(=O)[C@H](CCCCN)NC(=O)[C@H](CCCCN)NC(=O)[C@H](CCC(N)=O)NC(=O)[C@H](CCC(N)=O)NC(=O)[C@H](CCC(=O)O)NC(=O)[C@H](CCC(=O)O)NC(=O)[C@H](C)NC(=O)[C@H](CCCCN)NC(=O)[C@H](CCCCN)NC(=O)[C@H](CC(C)C)NC(=O)[C@H](CC(C)C)NC(=O)[C@H](CCC(=O)O)NC(=O)[C@H](CCC(=O)O)NC(=O)[C@@H](NC(=O)[C@H](CCCCN)NC(=O)[C@H](CCC(N)=O)NC(=O)[C@H](CCC(=O)O)NC(=O)[C@H](Cc1c[nH]c2ccccc12)NC(C)=O)[C@@H](C)CC)C(N)=O [LP-80] (Ac-WEQKIEELLKKAEEQQKKNEEELKKLEK(Stearoyl)-NH2) | 1150 ng/mL | 42,062 fold | 330 fold | 1,980 fold | 211 fold | 31 fold | 257 fold | 6.04 ± 0.85 h | 6.28 ± 1.03 h | –
2 | CCCCCCCCCCCCCCCCCC(=O)NCCCC[C@H](NC(=O)[C@H](CCC(=O)O)NC(=O)[C@H](CC(C)C)NC(=O)[C@H](CCCCN)NC(=O)[C@H](CCCCN)NC(=O)[C@H](CC(C)C)NC(=O)[C@H](CCC(=O)O)NC(=O)[C@H](CCC(=O)O)NC(=O)[C@H](CCC(=O)O)NC(=O)[C@H](CC(N)=O)NC(=O)[C@H](CCCCN)NC(=O)[C@H](CCCCN)NC(=O)[C@H](CCC(N)=O)NC(=O)[C@H](CCC(N)=O)NC(=O)[C@H](CCC(=O)O)NC(=O)[C@H](CCC(=O)O)NC(=O)[C@H](C)NC(=O)[C@H](CCCCN)NC(=O)[C@H](CCCCN)NC(=O)[C@H](CC(C)C)NC(=O)[C@H](CC(C)C)NC(=O)[C@H](CCC(=O)O)NC(=O)[C@H](CCC(=O)O)NC(=O)[C@@H](NC(C)=O)[C@@H](C)CC)C(N)=O [LP-90] | – | – | – | – | – | – | – | – | – | 0.0139 ± 0.00246 nM

Peptide text beside a SMILES is read from it. * marks the point of attachment. Stearoyl = CCCCCCCCCCCCCCCCCC(=O)*
